Experimental data taken from PMC3285607 (2012).

Legend:
KB-1753 [1] = biological target: T1, KB-1753 (synthetic construct, N-terminal FITC label (FITC-KB-1753) in the fluorescence polarization assay; synthetic phage-display peptide. The sequence is not printed here, so it is taken from the Gαi1·GDP·AlF4-/KB-1753 crystal …); assay: FP; GDP·AlF4-
T1 chain: RGYYHGIWVGE

KB-1753 [2] = biological target: T1, KB-1753; assay: FP; GDP

B1: Gαi1, wild type, full-length, hexahistidine-tagged (natural protein)
chain: MGCTLSAEDKAAVERSKMIDRNLREDGEKAAREVKLLLLGAGESGKSTIVKQMKIIHEAGYSEEECKQYKAVVYSNTIQSIIAIIRAMGRLKIDFGDSARADDARQLFVLAGAAEEGFMTAELAGVIKRLWKDSGVQACFNRSREYQLNDSAAYYLNDLDRIAQPNYIPTQQDVLRTRVKTTGIVETHFTFKDLHFKMFDVGGQRSERKKWIHCFEGVTAIIFCVALSDYDLVLAEDEEMNRMHESMKLFDSICNNKWFTDTSIILFLNKKDLFEEKIKKSPLTICYPEYAGSNTYEEAAAYIQCQFEDLNKRKDTKEIYTHFTCATDTKNVQFVFDAVTDVIIKNNLKDCGLF
KB-1753 [1]
  Kd: 0.47 µM
KB-1753 [2]
  Kd: 6.7 µM
